The assay concerns the target COX-1 (Homo sapiens, UniProt P23219). Description: biochemical.

Chains of the proteins cited; added tags and fusions are not shown. Residues count along the entry.
UniProt P23219, 24-599: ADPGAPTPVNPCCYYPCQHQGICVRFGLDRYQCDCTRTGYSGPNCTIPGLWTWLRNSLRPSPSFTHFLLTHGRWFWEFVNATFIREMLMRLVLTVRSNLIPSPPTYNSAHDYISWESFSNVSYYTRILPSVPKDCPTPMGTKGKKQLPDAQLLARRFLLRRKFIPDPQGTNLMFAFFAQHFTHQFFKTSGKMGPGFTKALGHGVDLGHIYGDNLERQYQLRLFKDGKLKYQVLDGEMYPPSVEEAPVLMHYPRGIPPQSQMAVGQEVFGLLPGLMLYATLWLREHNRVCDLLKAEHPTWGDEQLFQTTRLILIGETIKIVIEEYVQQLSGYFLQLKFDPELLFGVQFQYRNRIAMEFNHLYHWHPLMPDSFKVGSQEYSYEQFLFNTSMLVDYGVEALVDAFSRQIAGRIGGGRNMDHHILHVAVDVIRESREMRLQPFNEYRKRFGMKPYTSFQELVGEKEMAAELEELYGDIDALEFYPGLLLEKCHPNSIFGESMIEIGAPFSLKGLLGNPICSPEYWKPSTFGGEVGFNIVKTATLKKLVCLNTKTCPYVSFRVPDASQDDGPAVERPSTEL

“And” between values parts separate entries of the source, which are not always exact repeats. Identical values can stand only once.

Usually IC50 stands for the midpoint of a concentration-inhibition curve. Read a high IC50 as weaker potency. With `Cc1cc(OC(F)(F)F)cc2c1OC(C(F)(F)F)C(C(=O)O)=C2` (racemic) [Example 21b, 8-methyl-6-(trifluoromethoxy)-2-(trifluoromethyl)-2H-chromene-3-carboxylic acid], the IC50 was 2460 nM and 1050 nM.

These data come from patent publication US20050148627A1, “Benzopyran compounds for use in the treatment and prevention of inflammation related conditions” (priority 2003, published 2005).
